In ChEMBL document CHEMBL1212923, “Synthesis and in vivo evaluation of phenethylpiperazine amides: selective 5-hydroxytryptamine(2A) receptor antagonists for the treatment of insomnia” (J Med Chem, 2010):

Key:
[1] = Protein binding in monkey plasma; type: ADME, cell-free, Macaca mulatta; settings: rhesus monkey, read-out: PPB (converted)
Homo sapiens = species on record: Homo sapiens; assay: Protein binding in human plasma; settings: read-out: PPB (converted)

Cn1cc(Cl)c(C(=O)N2CCN(CC(=O)c3ccc(F)cc3)CC2)n1
fraction unbound [1]: 0.29
fraction unbound (Homo sapiens): 0.31
